Values of other authors in US20090124672A1 (priority 2007, published 2009).

Target: T1, human mitochondrial aldehyde dehydrogenase (ALDH-2) (Homo sapiens, UniProt P05091)
T1 sequence (P05091 18-517): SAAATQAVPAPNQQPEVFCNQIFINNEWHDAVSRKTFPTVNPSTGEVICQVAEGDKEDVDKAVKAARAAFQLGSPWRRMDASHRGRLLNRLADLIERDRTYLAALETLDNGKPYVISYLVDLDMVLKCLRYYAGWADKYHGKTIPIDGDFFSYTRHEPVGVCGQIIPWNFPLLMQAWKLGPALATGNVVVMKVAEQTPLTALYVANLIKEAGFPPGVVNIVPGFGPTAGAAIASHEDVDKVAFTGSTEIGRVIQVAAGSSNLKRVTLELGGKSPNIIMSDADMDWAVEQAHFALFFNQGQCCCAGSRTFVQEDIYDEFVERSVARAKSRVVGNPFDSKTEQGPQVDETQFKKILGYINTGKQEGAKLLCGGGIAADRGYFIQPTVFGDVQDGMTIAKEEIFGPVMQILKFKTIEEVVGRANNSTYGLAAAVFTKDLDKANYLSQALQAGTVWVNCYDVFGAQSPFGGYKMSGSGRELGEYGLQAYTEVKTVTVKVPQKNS
Settings: cited from earlier work

Substance: daidzin
- inhibition of ALDH-2: potent and selective inhibitors
